Results reported in patent publication US7582649B2, “Hydroxy alkyl substituted 1,3,8-triazaspiro[4.5]decan-4-one derivatives useful for the treatment of ORL-1 receptor mediated disorders” (Janssen Pharmaceutica, NV, priority 2002, dated 2009).

Protein sequences, listed by entry. Tags and fused reporters are not part of them.
UniProt P35372, whole entry: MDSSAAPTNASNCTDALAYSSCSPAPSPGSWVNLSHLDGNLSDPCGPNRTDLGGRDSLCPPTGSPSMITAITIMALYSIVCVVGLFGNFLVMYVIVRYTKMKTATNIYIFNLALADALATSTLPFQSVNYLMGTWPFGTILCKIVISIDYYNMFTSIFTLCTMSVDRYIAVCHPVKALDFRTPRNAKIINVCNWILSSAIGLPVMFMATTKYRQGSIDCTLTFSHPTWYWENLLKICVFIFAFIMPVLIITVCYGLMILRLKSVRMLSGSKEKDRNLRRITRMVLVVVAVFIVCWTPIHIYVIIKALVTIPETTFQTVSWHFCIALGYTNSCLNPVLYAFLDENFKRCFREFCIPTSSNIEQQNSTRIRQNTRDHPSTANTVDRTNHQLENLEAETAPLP
UniProt P41145, whole entry: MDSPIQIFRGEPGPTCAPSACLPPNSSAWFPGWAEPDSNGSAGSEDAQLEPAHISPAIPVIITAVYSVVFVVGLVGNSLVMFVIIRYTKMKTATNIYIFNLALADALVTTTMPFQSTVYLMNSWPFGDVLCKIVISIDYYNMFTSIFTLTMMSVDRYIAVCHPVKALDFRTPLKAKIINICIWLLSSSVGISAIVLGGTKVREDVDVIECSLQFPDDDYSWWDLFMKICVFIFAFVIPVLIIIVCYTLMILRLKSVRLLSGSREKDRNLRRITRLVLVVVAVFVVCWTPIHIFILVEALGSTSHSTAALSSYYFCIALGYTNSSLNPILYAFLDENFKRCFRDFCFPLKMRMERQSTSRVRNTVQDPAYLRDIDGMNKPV
UniProt P41143, whole entry: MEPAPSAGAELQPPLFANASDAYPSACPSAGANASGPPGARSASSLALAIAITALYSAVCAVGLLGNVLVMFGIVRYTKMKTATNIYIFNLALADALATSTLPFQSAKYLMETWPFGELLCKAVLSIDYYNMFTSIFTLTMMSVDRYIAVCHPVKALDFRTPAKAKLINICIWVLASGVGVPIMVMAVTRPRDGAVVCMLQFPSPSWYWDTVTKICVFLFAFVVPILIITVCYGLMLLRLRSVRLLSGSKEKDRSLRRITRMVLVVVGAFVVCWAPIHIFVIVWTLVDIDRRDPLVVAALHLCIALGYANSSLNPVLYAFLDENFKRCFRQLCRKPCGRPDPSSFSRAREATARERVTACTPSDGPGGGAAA

Experiments:
mu opioid receptor = mu opioid receptor (Homo sapiens, UniProt P35372); assay: Filtration binding assay: mu opioid receptor
kappa opioid receptor = kappa opioid receptor (Homo sapiens, UniProt P41145); assay: Filtration binding assay: kappa opioid receptor; conditions: read-out: Kappa Ki; value followed by notation Ki
delta opioid receptor = delta opioid receptor (Homo sapiens, UniProt P41143); assay: Filtration binding assay: delta opioid receptor; conditions: read-out: Delta Ki; value followed by notation Ki

Cc1cccc(SC[C@H](O)CN2CN(c3ccccc3)C3(CCN(CCc4ccccc4-c4cccs4)CC3)C2=O)c1
IC50 (mu opioid receptor; read-out: Mu IC50, mean where tested more than once): 3 nM

Cc1c(C(C)N2CCC3(CC2)C(=O)NCN3c2ccc(F)cc2)sc2ccccc12 (stereo not shown)
Ki (kappa opioid receptor): 10 nM
Ki (mu opioid receptor; read-out: Mu Ki, value followed by notation Ki): 3 nM
Ki (delta opioid receptor): 350 nM
